# Source: patent publication US5266599A, “Use of (+)-1-[(3,4,5-trimethoxy)-benzyloxymethyl]-1-phenyl-N,N-dimethyl-n-propy lamine to increase gastric discharge in a subject” (priority 1989, dated 1993)
# What was measured:
# [1] = system: opiate receptors of the kappa type in the gastric mucous membrane; conditions: dog, M. Gue et al.; cited from earlier work
# [2] = system: opiate receptors of the gastric mucous membrane; assay: Effect of the products on the gastric evacuation of solids in dogs; format: in vivo; conditions: intravenous antagonist
# From the text: The research on the local activity of the product of the invention on the opiate receptors of the gastric mucous membrane has been carried out according to a method following that described by M. Gue et al. (already mentioned).
# In an attempt to show such an action with the product of the invention, this has been used in this test, compared with its levorotary enantiomer and trimebutine which is known for its regulatory activity of the gastrointestinal functioning.
# The principle of the test consists in measuring the gastric content of the animals one hour after eating a meal comprising 400 g of solid matter with 21.7% dry matter composed of:
# and 20 g of sheeps liver containing radiolabelled cyanocobalamine. […]
# The collected sample is weighed and homogenized. Its radioactivity is measured and the amount of the gastric discharge expressed in percentage is calculated according to the formula: [formula] in which: […]
# In practice, each test is carried out on three dogs and consists in administering to them, 20 minutes before eating the meal described above, a capsule containing the test product at a dose of […] per kg animal weight or a capsule placebo which serves to determine the control phenomenon of the discharge on the animal. […] The evacuation values of the solid phases are measured as described before and compared using the test of Mann and Whitney (U test). […]
structure (smiles),measurement,setting,value
C=CCN1CC[C@]23c4c5ccc(O)c4O[C@H]2C(=O)CC[C@@]3(O)[C@H]1C5 [naloxone],inhibition of the gastric discharge effect of kappa agonists (in words),[1],inhibited
same,inhibition of the gastric discharge effect of the product of the invention by the antagonist (in words),[2],inhibited
